Molecules are shown by their SMILES.

Protein sequences, listed by entry. Tags and fused reporters are not part of them.
UniProt P34972, whole entry: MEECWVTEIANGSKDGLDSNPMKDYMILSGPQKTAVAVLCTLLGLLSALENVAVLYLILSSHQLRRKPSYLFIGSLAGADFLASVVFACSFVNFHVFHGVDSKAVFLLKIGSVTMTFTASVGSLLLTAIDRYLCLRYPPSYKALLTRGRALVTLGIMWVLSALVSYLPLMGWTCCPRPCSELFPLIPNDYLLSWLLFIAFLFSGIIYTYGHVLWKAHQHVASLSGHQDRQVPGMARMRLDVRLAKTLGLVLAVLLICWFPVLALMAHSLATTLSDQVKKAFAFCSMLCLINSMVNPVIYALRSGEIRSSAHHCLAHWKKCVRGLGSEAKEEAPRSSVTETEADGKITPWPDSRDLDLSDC

The target in the assay is T1, recombinant human CB2 (Homo sapiens, UniProt P34972).
T1 construct: expressed in transfected cells; host or cells: Sf9 cells
Description: Competitive receptor binding against tritium labelled CP55,940, CB2. The conditions noted are these: purified components; Sf9 cells.

Regarding `C=C(C)[C@@H]1CCC(C)=C[C@H]1c1c(O)cc(CCCCC)cc1O` [CBD, cannabidiol], the Kd came to 280 nM.

For orientation: Kd means the equilibrium constant for the complex coming apart.

These data come from patent US7807711B2, “Medicinal acidic cannabinoids” (priority 2004, dated 2010).
